## Yeast mating assay 1: variants of the scFv Ab-14

Data: MIT Lincoln Laboratory AlphaSeq set, Engelhart et al. 2022, doi:10.1038/s41597-022-01779-4, as distributed in FLAb.

Target peptide (SARS-CoV-2 spike, HR2 region): PDVDLGDISGINAS

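The parent was found by panning a naive human phage display library on the peptide. AAYL50 was designed without a model: most single CDR substitutions and a random sample of double and triple ones. The scFvs were displayed on barcoded MATa yeast, the peptide on MATalpha yeast. After mating in shaken culture at 30 °C for 16 h, diploids were selected and their barcode pairs sequenced. The ratio of observed to expected reads was calibrated, replicate by replicate, on BCL2-family standards whose Kd was known from biolayer interferometry. The assay was run in three technical replicates.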

Each scFv is VH, three GGGGS repeats, VL, as in the parent Ab-14, and differs from it in the CDRs of the light chain only.
VH: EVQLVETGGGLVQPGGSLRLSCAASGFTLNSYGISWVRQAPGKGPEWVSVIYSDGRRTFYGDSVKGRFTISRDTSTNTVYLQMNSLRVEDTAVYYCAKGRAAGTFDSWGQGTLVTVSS
VL: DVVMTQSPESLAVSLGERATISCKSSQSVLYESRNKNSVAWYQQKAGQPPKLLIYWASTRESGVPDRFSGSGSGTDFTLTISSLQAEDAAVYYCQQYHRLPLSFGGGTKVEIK

Variants are written as CDR1, CDR2 and CDR3 of the light chain (limits as in the source). Parent: KSSQSVLYESRNKNSVA, WASTRES, QQYHRLPLS.
Affinities are written as log10 Kd with Kd in nM; a lower number is a better binder.
The mean shown is taken over the replicates in which the pair was detected.
"no signal" marks a missing value. The strain was present, yet no cells mated with the target were sequenced in any replicate, which points to weak or no binding.
Empty control strains, which show no peptide, gave a signal in 18% of pairings with library AAYL50; the median was 4.19 and 95% of these signals were weaker than 2.99. No background was subtracted.

CDR-L1,CDR-L2,CDR-L3,"mean, log10 nM",detected
KSSQSVLYESRNKRSVA,WASTRES,QMWHRLPLS,no signal,0/3
SSSQSVLYFSRNKNSVC,WASTRES,QQYHRLPLS,4.42,2/3
KSSMSVLYESRNTNSVA,WASTRES,QQYHRLYLS,3.38,1/3
KSSQSVSYQSANKNSVA,WASTRES,QQYHRLPLS,3.82,1/3
KSSQSVLYESVNKNLVA,WASTRES,QQYHRLPYS,4.38,2/3
KSSQSVQYESRNKNSVA,WASTREK,KQYHRLPLS,5.19,1/3
KSSQSVLYESRNKNSVA,WASTRRS,QQYFRLPDS,no signal,0/3
KSSQSVLWESRNKNSVA,WASTREA,QQYWRLPLS,1.93,3/3
KSSQSVLYESRNKNSVA,WISTRES,PQYHRLPLS,4.54,2/3
KSSQSVLYESRNKNSVA,WASTRWS,QQYHRWLLS,no signal,0/3
KSSQSVLYESRNKNSVI,WASTRES,QQYHRFPFS,3.60,1/3
KSSQSVLYESRNFNFVA,WASTRHS,QQYHRLPLS,no signal,0/3
KSSQSVLYESRNKNSVA,WASTRES,QNYHRLPTS,2.21,2/3
KSSQSVLYESREKNSVA,WASTRES,STYHRLPLS,1.13,3/3
KSSQSVLYESRNKGSVA,WASTRES,FQYHRLHLS,no signal,0/3
KSSQTVLEESRNKNSVA,IASTRES,QQYHRLPLS,3.37,3/3
KCSQSVLYESRNKNSNI,WASTRES,QQYHRLPLS,no signal,0/3
KSSQSVLYESRNKNSVA,WASTRES,IQYHWVPLS,1.07,3/3
KFSQSVLYESRNKNSVA,WASTEES,QQYHRLPWS,4.32,2/3
KSSQSVLYESRNKMCRA,WASTRES,QQYHRLPLS,no signal,0/3
KSSQSVLYESRNKNKYA,WASTRES,QMYHRLPLS,3.73,1/3
TSSQSVLYESRNKNSVA,WASTRES,QVYHRMPLS,no signal,0/3
KSSQSVLYESRNKNSVF,WASTRES,QSYHRLPLE,no signal,0/3
KSSQSVLPESRNANSVA,WASTRES,QQYPRLPLS,no signal,0/3
QSSQSVLYESRNKNSVA,WASTRES,QQYHGLSLS,0.91,3/3
KRSQSVLYESRNKNSVA,MASTRES,QQYHPLPLS,0.99,3/3
PSSQSVLYESRNKNSVA,WASTRGS,YQYHRLPLS,2.80,1/3
KSMQSVLYESRNKNSVA,WASTRES,QQYHRGPLL,4.38,2/3
KSSQDVLYESRLKNSVA,WASTRES,QQYHPLPLS,4.33,3/3
KSSQSVLYESRNKNSVA,WASTAES,QQYHRLTLS,4.01,2/3
FSSQSVLYESRNKNLVA,WASTRES,QQEHRLPLS,no signal,0/3
KSSKSVLYESRNKNSVA,WASTIES,QQYTRLPLS,3.29,1/3

Continued, with the values leading:

"mean, log10 nM",detected,CDR-L1,CDR-L2,CDR-L3
no signal,0/3,KSSQSVLYVSRNKNSVA,WASTRES,QHYHRRPLS
4.51,2/3,KNSQSVLYESRNGNSVN,WASTRES,QQYHRLPLS
1.02,3/3,KSSQSVPYSSRNKNSVA,WTSTRES,QQYHRLPLS
1.36,3/3,KYSQKVLYESRNKNSVA,WAQTRES,QQYHRLPLS
0.44,3/3,KSSQSVPYESRNNNSVA,WASTRES,QQYWRLPLS
3.88,2/3,TSSQSVLYERRNKNSVA,WYSTRES,QQYHRLPLS
0.81,3/3,SSSMSVLSESRNKNSVA,WASTRES,QQYHRLPLS
no signal,0/3,KSSQSVLYESRNKNSVA,WMSTRHS,QMYHRLPLS
2.77,3/3,KSSQSVLYESRNKNSVA,CASTRES,QQLDRLPLS
1.68,3/3,KSSQSVLYEVRNKQSVA,WASTRES,QQYGRLPLS
1.80,3/3,KSSQSVLYESRNKNSVA,WASTRIS,GQYHRMPLS
3.18,3/3,KSNQSVLYESRSKNSVA,WKSTRES,QQYHRLPLS
2.35,3/3,KSSQSVWYESRNKISVA,WASTRES,QQYHLLPLS
2.38,3/3,KSNQSVLYESRNKNGVA,WASTRES,QQYHRLPLS
no signal,0/3,KSSQSVLYLSRNKNSVC,WASTRES,QQYHRLPLS
0.64,3/3,KISQSLLYESRNKNSVA,WASTLES,QQYHRLPLS
2.72,3/3,KSSQSVLYESRNKNPVA,WASTRES,QSRHRLPLS
1.94,3/3,KSSQSVLYESRNKNSVA,WASSRES,QQYHRLTCS
1.19,3/3,KHSQSVLYESRNKNSVA,WASTRES,QQYHRFPLS
4.36,1/3,KSSQSVLYESRNKQSVA,WASTRES,QQYHKVPLS
-0.26,3/3,KSSQAFLYESRNKNSVA,SASTRES,QQYHRLPLS
no signal,0/3,KSSQSVLYESRNKNSVA,WASTRES,WQYHGLKLS
4.28,3/3,KSSQSVLTESRPKNSVA,WASTVES,QQYHRLPLS
no signal,0/3,KSSQSVLSESRNKNQVA,WALTRES,QQYHRLPLS
1.92,3/3,YSSQSVLYRSWNKNSVA,WASTRES,QQYHRLPLS
0.84,3/3,KSSQSVLYESRNKNSVA,EASTRES,QQYHELALS
2.86,3/3,KSSQSVLCESRNKNSVA,WAYTRES,QQYFRLPLS
no signal,0/3,KDSQSVLYESRNKNSVA,WASGREH,QQYHRLPLS
1.89,3/3,KSEQSVLSESRNKNSVA,WASTRGS,QQYHRLPLS
0.78,3/3,KSSQEVLYESRNTNSVA,WASTRFS,QQYHRLPLS
no signal,0/3,KSSQSVLYESRNKNSVN,WASTRES,QQIWRLPLS
0.95,3/3,KSQQSVLYESRNKNSVA,WASTREM,QQYHRLPLS

Top 4 of the variants detected in all replicates, tightest first:

CDR-L1,CDR-L2,CDR-L3,"mean, log10 nM",detected
KSSQAFLYESRNKNSVA,SASTRES,QQYHRLPLS,-0.26,3/3
KSSQSVPYESRNNNSVA,WASTRES,QQYWRLPLS,0.44,3/3
KISQSLLYESRNKNSVA,WASTLES,QQYHRLPLS,0.64,3/3
KSSQEVLYESRNTNSVA,WASTRFS,QQYHRLPLS,0.78,3/3